Reference: PubChem BioAssay AID1556 (The Scripps Research Institute Molecular Screening Center, 2009)
The list shows a part of the results, in another mix than the full data. Active and inactive are the calls of the source.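 The calls were made as follows: active = inhibition above the mean plus 3 SD of all compounds in the same screening run (cut at about 4.5% in these data); inactive = the rest.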

test system: metallo-beta-lactamase IMP-1 (Pseudomonas aeruginosa); assay: inhibition of IMP-1 nitrocefin hydrolysis – biochemical, epi-absorbance readout, Pseudomonas aeruginosa enzyme, primary screen (AID 1556); conditions: purified IMP-1, nitrocefin hydrolysis, epi-absorbance fluorescence; at 5.6 µM; stronger effect = higher value;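 also: 0% = IMP-1 with DMSO and 100% = DMSO wells lacking enzyme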

Structure (SMILES) | inhibition
Cc1ccc(N/C(=N/P(=O)(N2CCOCC2)N2CCOCC2)N2CCOCC2)cc1 | inactive: -2.6%
NC(=O)c1cc([N+](=O)[O-])cc([N+](=O)[O-])c1N | inactive: -0.3%
CC(=O)Nc1ccc([As](=O)(O)O)c(O)c1 | inactive: -1.62%
CC(=O)Nc1ccc(Oc2c([N+](=O)[O-])cc([N+](=O)[O-])cc2[N+](=O)[O-])cc1 | inactive: -2.85%
CC(=O)c1ccc(N2CC2c2ccncc2)cc1 (centres undefined) | inactive: -2.82%
CC(C)(C)C(=O)NC(Sc1ccccc1)C(Cl)(Cl)Cl (centres undefined) | inactive: -0.26%
O=P1(Nc2nc3ccc(Cl)cc3s2)COc2ccccc2O1 (centres undefined) | inactive: -2.43%
CCOc1ccc(C2=NCC(CBr)S2)cc1 (centres undefined) | inactive: -3.34%
Cc1ccccc1OP(=O)(Nc1ccccn1)Oc1ccccc1C | inactive: -2.88%
CN(C)C(=O)Oc1noc2ccccc12 | inactive: -1.88%
O=c1c2cc([N+](=O)[O-])ccc2[nH]c2c([N+](=O)[O-])cc([N+](=O)[O-])cc12 | inactive: -2.13%
O=C(OC1CN2CCC1CC2)c1ccccc1 (centres undefined) | inactive: 0.7%
CCC(=O)N1C2C3N(C(=O)CC)C1C1N(C(=O)CC)C(C(N1C(=O)CC)N3C(=O)CC)N2C(=O)CC | inactive: -2.51%
COC(=O)c1cc2c(s1)N=C(c1ccccc1)N(C)P2(=O)N1CCOCC1 (centres undefined) | inactive: -0.68%
Cc1ccc(OP(=O)(Nc2ccccn2)Oc2ccc(C)cc2)cc1 | inactive: -1.83%
CC(=O)NC(SC(=S)N(CC(C)C)CC(C)C)C(Cl)(Cl)Cl (centres undefined) | inactive: -2.42%
c1ccc(-c2nn[nH]n2)c(-c2nn[nH]n2)c1 | inactive: 1.68%

Structure (SMILES) | inhibition
CCOC(=O)NC(Sc1ccccc1)C(Cl)(Cl)Cl (centres undefined) | inactive: -0.45%
Cc1ccc(NP(=O)(Oc2cccc(C)c2)Oc2cccc(C)c2)nc1 | inactive: 1.61%
O=C(NC1CCS(=O)(=O)C1)NP(=S)(Oc1ccccc1)Oc1ccccc1 (centres undefined) | inactive: -2.73%
CCNC(=S)/N=C(\N)N[N+](=O)[O-] | active: 7.01%
O=C(OC1CN2CCC1CC2)c1cccc(Cl)c1 (centres undefined) | inactive: -4.98%
Nc1ccc([As](=O)(O)c2ccc([N+](=O)[O-])cc2)cc1 | inactive: -0.43%
C(Cc1nn[nH]n1)Cc1nn[nH]n1 | inactive: -2.94%
O=[As](O)(c1ccccc1)c1ccc(O)cc1 | inactive: -0.7%
O=[N+]([O-])c1ncn(CCn2cnc([N+](=O)[O-])n2)n1 | inactive: -5.1%
CC(=O)NC(SC(=S)N(C)C)C(Cl)(Cl)Cl (centres undefined) | inactive: -1.38%
O=[N+]([O-])c1ccc(O)c(/C=N/Nc2ccc([N+](=O)[O-])cc2[N+](=O)[O-])c1 | inactive: -2.17%
O=P(Nc1nc2ccccc2s1)(c1ccccc1)c1ccccc1 | inactive: -2.91%
CN(C)C1(CNC(=O)c2ccc(Cl)c(S(N)(=O)=O)c2)CCCCC1 | inactive: -2.37%
O=P(Nc1ccccn1)(c1ccc(Br)cc1)c1ccc(Br)cc1 | inactive: -1.14%
c1nnnn1CCn1cnnn1 | inactive: -3.35%
O=P(Nc1nccs1)(c1ccccc1)c1ccccc1 | inactive: -3.25%
CC(C)C(=O)NC(Sc1ccccc1)C(Cl)(Cl)Cl (centres undefined) | inactive: -2.6%
